Seven substances from patent publication US20160096866A1 (University of Pennsylvania, published 2016) can be followed below.

Protein sequences, listed by entry. Tags and fused reporters are not part of them. Residues count along the entry.
UniProt P01024, 23-1663 limits assumed: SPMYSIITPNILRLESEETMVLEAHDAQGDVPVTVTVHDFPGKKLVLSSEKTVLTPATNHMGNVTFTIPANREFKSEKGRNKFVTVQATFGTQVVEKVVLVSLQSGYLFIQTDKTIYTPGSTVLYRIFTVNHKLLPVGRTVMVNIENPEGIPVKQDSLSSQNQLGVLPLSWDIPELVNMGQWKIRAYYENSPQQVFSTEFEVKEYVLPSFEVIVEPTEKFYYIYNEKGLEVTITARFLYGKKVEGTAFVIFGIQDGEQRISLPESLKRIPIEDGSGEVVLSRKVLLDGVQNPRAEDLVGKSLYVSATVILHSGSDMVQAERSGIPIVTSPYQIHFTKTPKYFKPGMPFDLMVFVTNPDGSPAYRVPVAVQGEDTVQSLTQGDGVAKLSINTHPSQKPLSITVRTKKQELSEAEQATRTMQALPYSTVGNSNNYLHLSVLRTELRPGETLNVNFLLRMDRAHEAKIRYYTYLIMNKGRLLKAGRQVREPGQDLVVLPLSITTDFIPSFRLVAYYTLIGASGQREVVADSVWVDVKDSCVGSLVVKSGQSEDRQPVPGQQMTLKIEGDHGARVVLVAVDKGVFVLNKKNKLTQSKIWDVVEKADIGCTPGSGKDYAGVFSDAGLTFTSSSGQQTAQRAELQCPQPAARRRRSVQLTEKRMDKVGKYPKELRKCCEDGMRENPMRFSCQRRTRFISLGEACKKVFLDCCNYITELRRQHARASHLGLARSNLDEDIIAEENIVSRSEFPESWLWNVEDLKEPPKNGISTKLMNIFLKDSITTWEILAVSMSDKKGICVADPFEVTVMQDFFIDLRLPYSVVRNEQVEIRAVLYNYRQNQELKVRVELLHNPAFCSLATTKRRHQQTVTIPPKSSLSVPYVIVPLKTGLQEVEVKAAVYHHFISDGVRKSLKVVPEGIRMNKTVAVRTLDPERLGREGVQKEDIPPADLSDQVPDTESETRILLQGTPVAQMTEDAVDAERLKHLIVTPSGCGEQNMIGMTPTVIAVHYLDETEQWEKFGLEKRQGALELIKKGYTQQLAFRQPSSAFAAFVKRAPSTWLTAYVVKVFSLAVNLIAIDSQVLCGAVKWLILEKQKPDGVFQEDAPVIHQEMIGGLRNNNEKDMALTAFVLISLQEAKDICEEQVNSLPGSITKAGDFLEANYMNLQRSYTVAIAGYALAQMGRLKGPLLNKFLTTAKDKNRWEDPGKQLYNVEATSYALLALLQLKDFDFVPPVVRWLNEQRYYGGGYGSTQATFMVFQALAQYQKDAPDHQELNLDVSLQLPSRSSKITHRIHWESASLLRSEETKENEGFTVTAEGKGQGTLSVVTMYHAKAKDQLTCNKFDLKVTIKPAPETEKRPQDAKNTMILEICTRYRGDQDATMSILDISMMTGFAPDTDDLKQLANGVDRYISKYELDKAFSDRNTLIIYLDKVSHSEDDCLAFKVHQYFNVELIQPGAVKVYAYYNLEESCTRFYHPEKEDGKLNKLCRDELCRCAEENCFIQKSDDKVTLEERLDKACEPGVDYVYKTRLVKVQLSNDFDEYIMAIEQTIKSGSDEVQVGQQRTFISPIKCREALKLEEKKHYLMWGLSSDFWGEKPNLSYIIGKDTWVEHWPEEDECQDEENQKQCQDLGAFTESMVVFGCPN

pKd: −log10 of the molar value.

The target of experiment [1] is complement component C3 (human) (UniProt P01024). The experiment can be described thus: ITC; relative to Ac-V4W/H9A. (In general: Isothermal titration calorimetry measures the heat released or taken up as one component is titrated into another.)
Experiment [2] shares this target. Kind of experiment: ITC, peptide titrated into C3, PBS pH 7.4, 25 C.
Experiment [3] has the same target. The experiment can be described thus: ITC, peptide titrated into C3.
Experiment [4] has the same target. The experiment can be described thus: ITC; this row is the reference.

For the substance Ac-V4W/W7(5f-l-W)/H9A (peptide), in experiment [1], the ΔΔG is -1 kcal/mol. In addition, in experiment [2], the -TΔS was determined as 11.6 kcal/mol.

As for “Ac-V4(1-methyl-W)/W7(5f-l-W)/H9A (peptide)”, the -TΔS in experiment [2] stood at 6.73 kcal/mol.

Ac-V4(1-methyl-W)/H9A (peptide) returned a -TΔS in experiment [2] of 6.94 kcal/mol.

In experiment [1], Ac-V4(5f-l-W)/W7(5f-l-W)/H9A (peptide) displayed a -TΔΔS of -2.06 kcal/mol, a ΔΔG of -1.2 kcal/mol and a ΔΔH of 0.81 kcal/mol. For the same substance, the -TΔS in experiment [2] turned out to be 6.73 kcal/mol. The substance further came in with a free energy change in experiment [3] of -10.5 kcal/mol.

For the substance Ac-V4(5-methyl-W)/H9A (peptide), in experiment [2], the -TΔS came to 8.2 kcal/mol and the pKd (in general, −log10 of the Kd, conventionally taken in molar units) is 6.92.

For Ac-V4(5f-l-W)/H9A (peptide), in experiment [2], the -TΔS was 7.39 kcal/mol and the ΔG was -9.4 kcal/mol.

In experiment [4], Ac-V4W/H9A (peptide) came in with a -TΔΔS of 0 kcal/mol, a ΔΔG of 0 kcal/mol and a ΔΔH of 0 kcal/mol.
